# Reference: article PMC5399312 (Journal of Experimental & Clinical Cancer Research : CR, 2017)
# By UniProt entry, the sequences of proteins in these tests, tags left out.
# UniProt P35557, whole entry: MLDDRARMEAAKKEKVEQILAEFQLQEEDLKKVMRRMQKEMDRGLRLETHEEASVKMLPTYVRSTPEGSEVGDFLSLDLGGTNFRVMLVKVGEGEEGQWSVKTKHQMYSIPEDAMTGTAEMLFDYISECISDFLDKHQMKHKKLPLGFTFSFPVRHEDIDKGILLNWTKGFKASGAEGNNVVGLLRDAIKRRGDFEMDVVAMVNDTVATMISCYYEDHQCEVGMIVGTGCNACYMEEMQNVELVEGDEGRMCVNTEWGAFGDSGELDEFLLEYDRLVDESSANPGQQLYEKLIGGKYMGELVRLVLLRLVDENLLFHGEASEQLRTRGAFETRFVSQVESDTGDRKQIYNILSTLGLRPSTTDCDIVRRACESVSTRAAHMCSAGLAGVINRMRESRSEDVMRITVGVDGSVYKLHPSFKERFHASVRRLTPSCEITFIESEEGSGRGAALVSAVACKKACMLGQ
# What was measured:
# HK1 = biological target: T1, HK1 (Homo sapiens, UniProt P19367); experiment: In vitro enzyme inhibition assay (G6P-DH coupled, NADH 340 nm); format: biochemical
# T1 construct: purchased Shanghai yuanye Bio-Technology Co., Ltd (China)
# T1 sequence (P19367 1-917): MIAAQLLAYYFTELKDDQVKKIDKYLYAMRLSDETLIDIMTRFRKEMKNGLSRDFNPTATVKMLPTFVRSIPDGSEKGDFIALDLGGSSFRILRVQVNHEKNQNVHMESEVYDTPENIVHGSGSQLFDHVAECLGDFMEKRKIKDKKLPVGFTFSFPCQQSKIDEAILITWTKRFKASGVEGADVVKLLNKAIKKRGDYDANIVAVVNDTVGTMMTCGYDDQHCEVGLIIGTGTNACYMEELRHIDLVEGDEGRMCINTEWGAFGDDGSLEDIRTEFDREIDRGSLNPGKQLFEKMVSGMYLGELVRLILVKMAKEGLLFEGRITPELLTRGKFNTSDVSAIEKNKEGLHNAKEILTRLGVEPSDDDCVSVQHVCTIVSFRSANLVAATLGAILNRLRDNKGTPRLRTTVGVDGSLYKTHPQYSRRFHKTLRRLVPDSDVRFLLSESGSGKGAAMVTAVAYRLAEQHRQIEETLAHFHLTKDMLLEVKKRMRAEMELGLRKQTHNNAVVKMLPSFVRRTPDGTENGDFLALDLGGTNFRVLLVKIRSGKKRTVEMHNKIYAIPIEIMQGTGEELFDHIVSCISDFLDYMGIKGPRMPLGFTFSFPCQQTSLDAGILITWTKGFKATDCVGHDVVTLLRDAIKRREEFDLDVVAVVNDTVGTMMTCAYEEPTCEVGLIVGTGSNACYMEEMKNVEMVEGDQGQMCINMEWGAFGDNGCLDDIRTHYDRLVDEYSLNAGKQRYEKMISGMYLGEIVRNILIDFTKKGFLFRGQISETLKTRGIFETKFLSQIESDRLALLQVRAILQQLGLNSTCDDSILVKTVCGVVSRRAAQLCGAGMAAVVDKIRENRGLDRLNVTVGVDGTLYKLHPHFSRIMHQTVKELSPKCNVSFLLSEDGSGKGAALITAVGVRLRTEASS
# Protocol: (§1) Then 85 μL assay mix containing 100 mM Tris HCl pH 8.0, 5 mM MgCl2, 200 mM Glucose, 0.8 mM ATP, 1 mM NAD^+, 0.25 Units of G6P-DH, was added.
# HK4 = biological target: T2, HK4 (Homo sapiens, UniProt P35557); experiment: as above; format: biochemical
# T2 construct: made in house; host or cells: E. coli BL21 (DE3)
# Protocol: as §1
smiles,measurement,setting,value
"NC(CO)C(=O)NNCc1ccc(O)c(O)c1O (centres unmarked) [Benz, Benserazide]",selectivity against HK2 versus HK1,HK1,about 5 fold
same,selectivity against HK2 versus HK4,HK4,8 fold
